Data reported in ChEMBL document CHEMBL1145099, “Aloisines, a new family of CDK/GSK-3 inhibitors. SAR study, crystal structure in complex with CDK2, enzyme selectivity, and cellular effects” (J Med Chem, 2003).

Amino acid sequences for entries named in this document (tags omitted). A change or cut given only in a name is not applied to a line headed by its entry.
UniProt P49840: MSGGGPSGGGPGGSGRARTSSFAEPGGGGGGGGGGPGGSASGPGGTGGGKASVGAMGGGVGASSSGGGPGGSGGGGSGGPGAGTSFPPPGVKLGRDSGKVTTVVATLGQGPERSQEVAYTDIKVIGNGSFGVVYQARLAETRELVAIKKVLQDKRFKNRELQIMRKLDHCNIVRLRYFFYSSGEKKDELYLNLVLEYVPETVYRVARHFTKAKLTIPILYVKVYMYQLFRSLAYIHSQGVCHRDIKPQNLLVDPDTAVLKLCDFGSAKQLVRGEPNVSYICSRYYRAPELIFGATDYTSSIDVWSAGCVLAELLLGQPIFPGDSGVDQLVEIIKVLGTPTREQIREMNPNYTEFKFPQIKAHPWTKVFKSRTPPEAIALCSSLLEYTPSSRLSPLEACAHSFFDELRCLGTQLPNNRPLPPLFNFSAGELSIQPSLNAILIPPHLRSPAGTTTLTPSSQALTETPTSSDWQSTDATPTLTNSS

Molecular target: Glycogen synthase kinase-3 alpha (Homo sapiens, UniProt P49840)

IC50: 500 nM
SMILES: CCCCc1c(-c2ccc(O)cc2)[nH]c2nccnc12 [ALOISINE A]
